From ChEMBL document CHEMBL6092220 (J Med Chem, 2024) come the findings set out here.

Data set [1] can be described thus: Plasma protein binding in mouse assessed as unbound fraction at 10 uM. In kind it is ADME, cell-free.
A short description of data set [2]: Plasma protein binding in human at 10 uM. The class given is ADME, cell-free.
Data set [3] in a line: Plasma protein binding in dog at 10 uM. In kind it is ADME, cell-free, Canis lupus familiaris.
The nature of data set [4]: Plasma protein binding in mouse at 10 uM. The class given is ADME, cell-free.
The species entered for another data set is Homo sapiens. The data set can be described thus: Binding affinity to STAT5 (unknown origin) assessed as maximum inhibition by FP assay relative to control.

`COC(=O)N1CC[C@H]2CC[C@@H](C(=O)N[C@@H](CCC(N)=O)C(=O)N[C@@H](Cc3ccc(F)c(F)c3)C(=O)N3CCC(CCC#Cc4cccc5c4CN(C4CCC(=O)NC4=O)C5=O)CC3)N2C(=O)[C@@H](NC(=O)c2cc3cc(C(F)(F)P(=O)(O)O)ccc3s2)C1` (stereo not given in full): the Fu in data set [1] was 0.3%. For the same compound, the values for the PPB in data set [2], in data set [3] and in data set [4] were 99.5%, 98.3% and 99.7%, respectively.

On to `NC(=O)CC[C@H](NC(=O)[C@@H]1CC[C@@H]2CCN(C(=O)CCCCCC#Cc3cccc4c3CN(C3CCC(=O)NC3=O)C4=O)C[C@H](NC(=O)c3cc4cc(C(F)(F)P(=O)(O)O)ccc4[nH]3)C(=O)N21)C(=O)NC(c1ccccc1)c1ccccc1` (stereo not given in full), for which the Imax in the data set listed under Homo sapiens amounted to 30%.
